Columns and labels:
Dihydrofolate reductase [1] = target: T1, Dihydrofolate reductase (Mus musculus, UniProt P00375)
T1 sequence (P00375 whole entry): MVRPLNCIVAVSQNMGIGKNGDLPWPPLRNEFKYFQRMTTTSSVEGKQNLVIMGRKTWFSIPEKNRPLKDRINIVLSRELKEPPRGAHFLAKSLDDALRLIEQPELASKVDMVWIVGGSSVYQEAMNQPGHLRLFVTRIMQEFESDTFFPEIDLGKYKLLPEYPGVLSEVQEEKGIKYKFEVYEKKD

Dihydrofolate reductase [2] = target: T1, Dihydrofolate reductase; assay: Inhibition of mouse DHFR in presence of saturating levels of NADPH and DHFA

Row | Compound | Ki (Dihydrofolate reductase [1]) | IC50 (Dihydrofolate reductase [2])
1 | COc1ccccc1/C(C)=C\c1coc2nc(N)nc(N)c12 | 62 nM | 
2 | COc1ccccc1/C(C)=C/c1coc2nc(N)nc(N)c12 | 160 nM | 14500 nM
